The source of these data is EP4843985A1, “TRIAZOLOPYRIMIDINE DERIVATIVE, PREPARATION METHOD THEREFOR AND USE THEREOF” (dated 2026).

Chains of the proteins cited; added tags and fusions are not shown. Residues count along the entry.
UniProt Q14191, 517-1238 limits assumed: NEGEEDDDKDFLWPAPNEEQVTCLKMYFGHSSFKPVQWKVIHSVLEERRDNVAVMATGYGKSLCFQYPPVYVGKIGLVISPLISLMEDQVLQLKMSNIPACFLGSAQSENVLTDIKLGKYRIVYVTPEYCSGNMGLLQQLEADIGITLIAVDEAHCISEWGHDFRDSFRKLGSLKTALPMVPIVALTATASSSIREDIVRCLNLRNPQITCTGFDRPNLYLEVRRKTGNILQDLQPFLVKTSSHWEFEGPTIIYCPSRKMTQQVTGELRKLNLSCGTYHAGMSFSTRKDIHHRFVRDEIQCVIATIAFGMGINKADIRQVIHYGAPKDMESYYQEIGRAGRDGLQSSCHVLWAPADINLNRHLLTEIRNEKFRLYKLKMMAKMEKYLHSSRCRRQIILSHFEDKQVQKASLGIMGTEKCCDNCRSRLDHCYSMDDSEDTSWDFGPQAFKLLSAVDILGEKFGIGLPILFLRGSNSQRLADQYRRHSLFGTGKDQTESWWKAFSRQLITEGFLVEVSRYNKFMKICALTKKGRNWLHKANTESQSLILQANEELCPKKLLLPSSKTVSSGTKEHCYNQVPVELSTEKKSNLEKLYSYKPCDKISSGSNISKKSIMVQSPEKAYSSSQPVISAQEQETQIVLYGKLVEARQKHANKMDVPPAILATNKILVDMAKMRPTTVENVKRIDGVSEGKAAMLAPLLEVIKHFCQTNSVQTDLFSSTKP

In data set [1] the test system is SW620 (CRC, MSS). The data set can be described thus: Cell proliferation inhibition assay (CellTiter-Glo), SW620. Particulars: read-out: SW620 (CRC, MSS), 120 hours. For orientation: ATP-based viability assays read luminescence as a measure of living cells.
Data set [2] can be described thus: Pharmacokinetics in balb/c nude mice (IV and PO). Particulars: for F: 10 mg/kg (vs IV 1 mg/kg).
The test system of data set [3] is SW48 (CRC, MSI). The data set can be described thus: Cell proliferation inhibition assay (CellTiter-Glo), SW48. Particulars: read-out: SW48 (CRC, MSI), 120 hours.
The target of data set [4] is WRN protein (AA N517-P1238) (Homo sapiens, UniProt Q14191). The data set can be described thus: In vitro WRN enzymatic activity assay (ADP-Glo ATPase assay). Particulars: read-out: ADP-Glo; 10 nM WRN enzyme, 3 hours pre-incubation at 25°C, ssDNA substrate. For orientation: ADP-Glo turns the ADP formed in a reaction into a luminescent signal.
Data set [5] concerns HCT116 (WRN-KO). The data set can be described thus: Cell proliferation inhibition assay (CellTiter-Glo), HCT116 WRN-KO. The settings on record: read-out: HCT116 (WRN-KO), 120 hours.
A short description of data set [6]: Pharmacokinetics in NOD SCID mice. The settings on record: PO, 20 mg/kg.

Each structure is given as a SMILES string.

As usually defined, the AUC is concentration integrated over time. Lower therefore signals low exposure. Broadly, the Cmax is the maximum level reached in the sampled fluid or tissue. With `[2H]C1([2H])CCC(c2nc3n(CC(=O)Nc4cc(C(F)(F)F)c(C)s4)c(CC)c(N4CCN(C(=O)c5ncnc(C)c5O)CC4)c(=O)n3n2)=CCO1`, the IC50 in data set [1] is greater than 10000 nM; in data set [3] it was 83.2 nM; in data set [4], 1.64 nM. Also, the AUC was 1349 ng·h/mL in data set [2] (IV, 1 mg/kg) and 1358 ng·h/mL in data set [2] (PO, 10 mg/kg). The molecule also came in with a T1/2 in data set [2] (IV, 1 mg/kg) of 1.03 h. In data set [2] (PO, 10 mg/kg), this molecule showed a Cmax of 1153 ng/mL. The same molecule came in with a F in data set [2] (PO) of 10.1%.

As to `CCC(=O)N1CC=C(c2nc3n(CC(=O)Nc4ccc(C(F)(F)F)cc4Cl)c(CC)c(N4CCN(C(=O)c5ncnc(C)c5O)CC4)c(=O)n3n2)CC1`, the IC50 in data set [1] is greater than 10000 nM; in data set [5], greater than 10000 nM; in data set [3], 30 nM; in data set [4], 10.1 nM.

In data set [6], `CCc1c(N2CCN(C(=O)c3ncnc(C)c3O)CC2)c(=O)n2nc(C3=CCOCC3)nc2n1CC(=O)Nc1ccc(C(F)(F)F)cc1Cl` came in with an AUC of 24247 ng·h/mL and a maximum concentration (Cmax) of 7557 ng/mL.

In data set [2] (IV, 1 mg/kg), `CCc1c(N2CCN(C(=O)c3ncnc(C)c3O)CC2)c(=O)n2nc(C3=CCCCOC3)nc2n1CC(=O)Nc1ccc(C(F)(F)F)cc1Cl` yielded an AUC of 1201 ng·h/mL and a T1/2 of 1.34 h. Also, in data set [2] (PO, 10 mg/kg), the area under the curve (AUC) came to 4201 ng·h/mL and the Cmax worked out at 1264 ng/mL. The molecule also had a F in data set [2] (PO) of 33.8%. In addition, the IC50 in data set [4] came to 2.76 nM.

Take `[2H]C1([2H])CCC(c2nc3n(CC(=O)Nc4ccc(C(F)(F)F)cc4Cl)c(CC)c(N4CCN(C(=O)c5ncnc(C)c5O)CC4)c(=O)n3n2)=CCO1`: the IC50 is greater than 10000 nM in data set [1], 34.1 nM in data set [3] and 3.36 nM in data set [4]. The AUC in data set [6] came out at 48526 ng·h/mL; in data set [2] (IV, 1 mg/kg), 2144 ng·h/mL; in data set [2] (PO, 10 mg/kg) it was 11178 ng·h/mL. Moreover, the Cmax in data set [6] is 8547 ng/mL; in data set [2] (PO, 10 mg/kg) it was 5407 ng/mL. In addition, in data set [2] (IV, 1 mg/kg), the T1/2 came out at 1.33 h. This molecule also registered a F in data set [2] (PO) of 53.0%.
